Source: ChEMBL document CHEMBL1687761

Assays:
[1] = test system: CO/N=C(\C(=O)N[C@@H]1C(=O)N2C(C(=O)O)=C(COC(N)=O)CS[C@H]12)c1ccco1; assay: Ratio of Kcat to Km for Escherichia coli XL1-Blue wild-type VIM-2 beta-lactamase by spectrophotometer
[2] = test system: CO/N=C(\C(=O)N[C@@H]1C(=O)N2C(C(=O)O)=C(COC(N)=O)CS[C@H]12)c1ccco1; assay: Ratio of Kcat to Km for Escherichia coli BL21(DE3) wild-type VIM-2 beta-lactamase by spectrophotometer
[3] = test system: CO/N=C(\C(=O)N[C@@H]1C(=O)N2C(C(=O)O)=C(COC(N)=O)CS[C@H]12)c1ccco1; assay: Activity of Escherichia coli XL1-Blue wild-type VIM-2 beta-lactamase by spectrophotometer
[4] = test system: CO/N=C(\C(=O)N[C@@H]1C(=O)N2C(C(=O)O)=C(COC(N)=O)CS[C@H]12)c1ccco1; assay: Activity of Escherichia coli BL21(DE3) wild-type VIM-2 beta-lactamase by spectrophotometer
[5] = test system: Escherichia coli; assay: Activity of Escherichia coli XL1-Blue wild-type IMP-1 beta-lactamase by spectrophotometer

Compound | kcat/Km [1] | kcat/Km [2] | Km [3] | kcat [3] | Km [4] | kcat [4] | Km [5] | kcat [5]
Metallo-beta-lactamase (Escherichia coli) (from UniProt Q5U7L7) | 0.4 µM⁻¹ s⁻¹ | 0.4 µM⁻¹ s⁻¹ | 20 µM | 8 s⁻¹ | 20 µM | 8 s⁻¹ | – | –
CO/N=C(\C(=O)N[C@@H]1C(=O)N2C(C(=O)O)=C(COC(N)=O)CS[C@H]12)c1ccco1 | – | – | – | – | – | – | 37 µM | 8 s⁻¹
